# Target: Sodium- and chloride-dependent GABA transporter 1 (Mus musculus, UniProt P31648)
# Assay: Displacement of NO 711 from mouse GAT1 expressed in HEK293 cell membranes after 40 mins by LC-ESI-MS-MS-based MS binding assay
compound,measurement,value
O=C(O)C1CCCNC1 (stereo unspecified) [NIPECOTIC ACID],Ki,58.2 µM

# From ChEMBL document CHEMBL3774377 (Bioorg Med Chem, 2016)
